According to PubChem BioAssay (Tox21):
The entries are a selection whose mix differs from that of the whole data set. Records with an inconclusive call do not appear. Activity calls are given as the source filed them. Unless noted, calls follow the shape of the full dose curve.

Chains of the proteins cited; added tags and fusions are not shown.
UniProt P30968, whole entry: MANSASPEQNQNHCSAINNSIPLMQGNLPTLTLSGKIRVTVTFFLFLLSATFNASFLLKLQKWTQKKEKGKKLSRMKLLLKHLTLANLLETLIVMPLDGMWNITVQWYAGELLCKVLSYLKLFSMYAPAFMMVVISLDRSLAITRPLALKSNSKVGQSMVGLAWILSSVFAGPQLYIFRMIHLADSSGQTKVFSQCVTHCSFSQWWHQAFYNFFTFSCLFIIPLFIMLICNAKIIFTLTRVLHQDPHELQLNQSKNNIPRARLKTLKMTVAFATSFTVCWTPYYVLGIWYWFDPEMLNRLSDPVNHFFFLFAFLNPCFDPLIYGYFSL
UniProt Q969F8, whole entry: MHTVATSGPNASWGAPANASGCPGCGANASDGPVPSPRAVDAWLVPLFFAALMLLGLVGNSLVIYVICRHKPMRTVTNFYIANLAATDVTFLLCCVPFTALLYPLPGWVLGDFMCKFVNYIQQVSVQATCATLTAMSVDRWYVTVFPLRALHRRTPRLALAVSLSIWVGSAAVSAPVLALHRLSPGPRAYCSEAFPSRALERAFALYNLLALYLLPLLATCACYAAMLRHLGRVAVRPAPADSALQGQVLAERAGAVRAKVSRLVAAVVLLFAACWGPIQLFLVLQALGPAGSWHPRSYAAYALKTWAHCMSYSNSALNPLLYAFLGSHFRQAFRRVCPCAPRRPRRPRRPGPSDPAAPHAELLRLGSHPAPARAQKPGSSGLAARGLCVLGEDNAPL
UniProt P28223, whole entry: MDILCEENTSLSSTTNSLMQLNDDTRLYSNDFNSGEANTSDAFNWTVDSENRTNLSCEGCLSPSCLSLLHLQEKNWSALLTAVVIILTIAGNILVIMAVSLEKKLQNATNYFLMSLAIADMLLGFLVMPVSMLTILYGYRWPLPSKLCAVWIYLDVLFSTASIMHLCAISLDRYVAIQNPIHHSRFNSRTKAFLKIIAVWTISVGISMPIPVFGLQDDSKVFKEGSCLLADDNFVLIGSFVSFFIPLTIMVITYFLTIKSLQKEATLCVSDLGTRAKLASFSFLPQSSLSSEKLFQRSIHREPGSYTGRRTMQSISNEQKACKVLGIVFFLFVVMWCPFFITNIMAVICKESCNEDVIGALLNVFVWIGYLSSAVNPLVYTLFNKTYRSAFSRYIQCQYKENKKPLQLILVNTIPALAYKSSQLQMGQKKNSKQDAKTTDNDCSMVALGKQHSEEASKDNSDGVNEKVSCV
UniProt P11229, whole entry: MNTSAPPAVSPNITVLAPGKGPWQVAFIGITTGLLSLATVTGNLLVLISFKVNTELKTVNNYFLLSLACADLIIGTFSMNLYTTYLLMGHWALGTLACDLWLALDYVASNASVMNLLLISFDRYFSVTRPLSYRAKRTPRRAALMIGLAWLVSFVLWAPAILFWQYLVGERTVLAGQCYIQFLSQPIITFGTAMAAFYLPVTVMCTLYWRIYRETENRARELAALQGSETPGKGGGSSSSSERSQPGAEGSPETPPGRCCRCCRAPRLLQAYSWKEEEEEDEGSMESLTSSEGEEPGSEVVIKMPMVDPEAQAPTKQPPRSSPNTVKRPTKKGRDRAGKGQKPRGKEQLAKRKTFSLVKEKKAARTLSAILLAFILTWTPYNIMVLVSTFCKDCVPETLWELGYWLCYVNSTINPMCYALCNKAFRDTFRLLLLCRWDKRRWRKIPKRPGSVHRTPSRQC
UniProt P07550, whole entry: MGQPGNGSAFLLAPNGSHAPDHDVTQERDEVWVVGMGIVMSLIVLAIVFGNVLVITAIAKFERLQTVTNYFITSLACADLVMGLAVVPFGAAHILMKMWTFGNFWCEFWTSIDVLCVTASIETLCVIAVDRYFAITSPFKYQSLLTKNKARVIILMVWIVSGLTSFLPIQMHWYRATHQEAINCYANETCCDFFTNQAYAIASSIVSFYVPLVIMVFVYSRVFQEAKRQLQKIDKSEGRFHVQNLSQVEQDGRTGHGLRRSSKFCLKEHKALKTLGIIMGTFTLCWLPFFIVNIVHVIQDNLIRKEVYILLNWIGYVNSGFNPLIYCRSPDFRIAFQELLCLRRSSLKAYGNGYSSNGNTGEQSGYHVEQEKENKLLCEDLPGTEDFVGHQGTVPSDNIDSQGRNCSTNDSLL
UniProt P14416, whole entry: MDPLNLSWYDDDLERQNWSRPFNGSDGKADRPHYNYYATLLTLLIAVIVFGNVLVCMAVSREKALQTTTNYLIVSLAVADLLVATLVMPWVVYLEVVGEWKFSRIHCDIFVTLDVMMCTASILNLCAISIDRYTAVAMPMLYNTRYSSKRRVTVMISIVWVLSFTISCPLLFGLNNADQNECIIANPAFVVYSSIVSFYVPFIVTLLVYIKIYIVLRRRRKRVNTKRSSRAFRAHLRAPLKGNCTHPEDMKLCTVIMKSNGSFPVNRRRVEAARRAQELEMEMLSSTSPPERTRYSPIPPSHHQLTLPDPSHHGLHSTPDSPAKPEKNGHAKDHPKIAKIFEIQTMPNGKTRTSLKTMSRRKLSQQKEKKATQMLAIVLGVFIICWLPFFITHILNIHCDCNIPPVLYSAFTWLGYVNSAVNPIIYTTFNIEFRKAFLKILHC

Assays:
[1] = Nuclear factor erythroid 2-related factor 2/antioxidant responsive element (Nrf2/ARE) small molecule agonists: qHTS cell viability counter screen in human keratinocytes (AID 1919968; active = well fitted curve in the direction sought with a large enough effect in the repeat runs; an effect the other way counts as inactive or inconclusive; also: nearly all actives have a fitted effect of over 55% in size); conditions: KeratinoSens HaCaT ARE cells viability, CellTiter-Fluor, 24 h; at 92.4 µM (top of the series) unless noted
How it was run: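 In human HaCaT keratinocytes stably expressing an ARE-driven luciferase, compound exposure lasted 23 h at 37 C under 5% CO2. Viable cells are quantified with a protease-based fluorogenic reagent (CellTiter-Fluor) read 1 h after addition.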

[2] = Nuclear factor erythroid 2-related factor 2/antioxidant responsive element (Nrf2/ARE) small molecule agonists: luciferase reporter gene qHTS assay in human keratinocytes (AID 1919969); conditions: KeratinoSens HaCaT ARE-luciferase, luminescence, 24 h; at 92.4 µM (top of the series) unless noted; also: nearly all actives have a fitted effect of over 35% in size
Description: National Center for Advancing Translational Sciences [NCATS]
Division of Preclinical Innovation [DPI]
U.S. Environmental Protection Agency [EPA]
National Institutes of Environmental Health Sciences [NIEHS]
National Toxicology Program [NTP]
U.S. Food and Drug Administration [FDA]
Oxidative stress has been implicated in the pathogenesis of a variety of diseases ranging from cancer to neurodegeneration. The antioxidant response element (ARE) signaling pathway plays an important role in the amelioration of oxidative stress. The KeratinoSens (Givaudan, Switzerland) is an in vitro test method which quantifies luciferase induction as a measure of activation of Keap1-Nrf2-antioxidationt/electrophile response element (ARE) dependant pathway in HaCaT human keratinocytes stably transfected with a selectable plasmid. The KeratinoSens assay is a cell-based assay with a reporter cell line to detect potential skin sensitizers by their ability to induce the Nrf2/ARE-response. The activation of the report gene under culture conditions can be detected by ONE-Glo Luciferase Assay System (Promega, Madison, WI). This cell line has been used to screen the Tox21 10K compound library to identify agonists that induce oxidative stress. The cytotoxicity of the Tox21 compound library against the KS-ARE cell line was tested in parallel by measuring the cell viability using CellTiter- Fluor assay system (Promega, Madison, WI) in the same wells.
HaCaT derived cell line KeratinoSens were dispensed at 1,500 cells/5uL/well in 1536-well white wall/solid bottom plates using a Multidrop Combi (ThermoFisher Scientific, Waltham, MA) dispenser. After the assay plates were incubated at 37 C/5% CO2 for 5 h, 23 nL of compounds dissolved in DMSO, positive controls or DMSO only was transferred to the assay plate by a pintool workstation (Kalypsys, San Diego, CA). The plates were incubated at 37 C/5% CO2 for 23 h, followed by addition of 1uL/well of CellTiter-Fluor reagent into the assay plates using a Flying Reagent Dispenser (Aurora Discovery, San Diego, CA) for cell viability readout that measures cytotoxicity. After 1 h incubation at 37 C/5% CO2 the fluorescence intensity was measured using a ViewLux (PerkinElmer, Shelton, CT) plate reader. Then 4uL/well of One-Glo were added using a Flying Reagent Dispenser. After the plates were incubated at room temperature for 30 min, the luminescence intensity in the assay plates was measured using ViewLux plate reader.

[3] = biological target: Gonadotropin-releasing hormone receptor (Homo sapiens) (UniProt P30968); assay: Human gonadotropin-releasing hormone receptor (GnRHR) small molecule agonists, calcium flux assay in GnRHR-HEK293 cells (AID 1920063); conditions: calcium flux fluorescence, agonist mode, stronger effect = higher value; at 57.6 µM (top of the series) unless noted; also: nearly all actives have a fitted effect of over 35% in size
How it was run: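 Intracellular calcium rise is the read-out: engineered human GnRHR HEK293 cells, dye-loaded, are exposed to DMSO-dissolved compounds and fluorescence at Ex/Em 480/540 is tracked for 3 min.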

[4] = biological target: KiSS-1 receptor (Homo sapiens) (UniProt Q969F8); assay: Human kisspeptin (KISS1R) small molecule agonists, calcium flux assay in KISS1R-HEK293 cells (AID 1920064; active = well fitted curve in the direction sought with a large enough effect in the repeat runs; an effect the other way counts as inactive or inconclusive); conditions: KISS1R-HEK293, calcium flux fluorescence, agonist; at 76.8 µM (top of the series) unless noted
How it was run: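 Concentration-response testing used 15 concentrations in triplicate on human KISS1R-expressing HEK293 cells. Calcium-dependent fluorescence (Ex/Em 480/540) was followed kinetically for 3 min after compound transfer.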

[5] = G protein-coupled receptor (GPCR) small molecule agonists, calcium flux assay: HEK293 wild type cell line counter screen (AID 1920065); conditions: HEK293 WT calcium flux, fluorescence, agonist mode; at 57.6 µM (top of the series) unless noted
How it was run: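 Fluorescence intensity signals activation. After overnight (18 h) culture and a 1 h calcium dye load at 37 C, compounds are added by pin tool and the plate read at 480/540 nm for 3 min in 1 s steps.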

[6] = p53 small molecule agonists, cell-based qHTS assay with human liver microsomes (AID 1963577); conditions: HCT-116 p53RE-bla with human liver microsomes, ratio, 16 h; at 66 µM (top of the series) unless noted
How it was run: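 p53RE-bla reporter cells were pre-incubated 5 h at 37 C, then treated with compounds plus human liver microsomes (0.5 mg/mL final) and NADPH (0.5 mg/mL final) for 16 h at 37 C. Beta-lactamase activity was read by LiveBLAzer fluorescence after 2 h at room temperature.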

[7] = p53 small molecule agonists, cell-based qHTS assay with rat liver microsomes (AID 1963578); conditions: HCT-116 p53RE-bla, beta-lactamase ratio, 16 h; at 66 µM (top of the series) unless noted
How it was run: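 p53RE-bla cells were exposed to compounds together with rat liver microsomes (0.5 mg/mL final) and NADPH (0.5 mg/mL final) for 16 h at 37 C, then read by LiveBLAzer beta-lactamase fluorescence after 2 h at room temperature.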

[8] = p53 small molecule agonists, cell-based qHTS assay with human liver microsomes: qHTS cell viability counter screen (AID 1963579); conditions: p53RE-bla HCT-116 viability, ATP luminescence, 16 h, HLM; at 66 µM (top of the series) unless noted; also: nearly all actives have a fitted effect of over 45% in size
How it was run: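 p53RE-bla cells (4,000/well) were pre-incubated 5 h at 37 C, then given compounds in DMSO plus human liver microsomes (0.5 mg/mL final) and NADPH (0.5 mg/mL final) for 16 h at 37 C. Viability was read by CellTiter-Glo luminescence.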

[9] = p53 small molecule agonists, cell-based qHTS assay with rat liver microsomes: qHTS cell viability counter screen (AID 1963580); conditions: p53RE-bla HCT-116 + rat microsomes, ATP viability, 16 h; at 66 µM (top of the series) unless noted; also: nearly all actives have a fitted effect of over 45% in size
How it was run: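 Counter screen for cytotoxicity under metabolic activation: rat liver microsomes and NADPH, 0.5 mg/mL final each, added with compounds to p53RE-bla HCT-116 cells; 16 h at 37 C, then ATP luminescence read.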

[10] = p53 small molecule agonists, cell-based qHTS assay: qHTS cell viability counter screen (AID 1963581); conditions: p53RE-bla HCT-116 viability, ATP luminescence, 16 h; at 66 µM (top of the series) unless noted; also: nearly all actives have a fitted effect of over 45% in size
How it was run: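 Luminescence from CellTiter-Glo, reflecting ATP content, serves as the cytotoxicity measure; it is taken after the 2 h reporter substrate step in HCT-116 p53RE-bla cells dosed for 16 h at 37 C.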

[11] = p53 small molecule agonists, cell-based qHTS assay (AID 1963582; active = well fitted activation curve with a large enough effect in the signal ratio in the repeat runs, not every such curve was filed as active; the % refers to the signal ratio); conditions: HCT-116 p53RE-bla reporter, beta-lactamase FRET ratio, 16 h; at 66 µM (top of the series) unless noted
How it was run: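 After plating, p53RE-bla cells sat 5 h in the incubator; compounds or DMSO vehicle were pinned in; a 16 h incubation at 37 C followed; FRET substrate was added and, 2 h later at RT, fluorescence was measured.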

[12] = biological target: 5-hydroxytryptamine receptor 2A (Homo sapiens) (UniProt P28223); assay: 5-hydroxytryptamine receptor 2A (HTR2A) small molecule antagonists, cell-based qHTS assay (AID 1963586); conditions: HTR2A-CHO cells, DOI-induced calcium flux, fluorescence; at 61.5 µM (top of the series) unless noted; also: nearly all actives have a fitted effect of over 45% in size
How it was run: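 CHO cells stably expressing human HTR2A were plated for 18 h at 37 C, then loaded with calcium dye for 1 h. Compounds were preincubated 5 min at room temperature before DOI (4 nM solution) was added. Kinetic fluorescence was read for 3 min.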

[13] = biological target: 5-hydroxytryptamine receptor 2A (Homo sapiens) (UniProt P28223); assay: 5-hydroxytryptamine receptor 2A (HTR2A) small molecule agonists, cell-based qHTS assay (AID 1963587); conditions: HTR2A-CHO cells, calcium flux fluorescence, agonist mode; at 76.8 µM (top of the series) unless noted; also: nearly all actives have a fitted effect of over 30% in size
How it was run: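 HTR2A-CHO cells, plated 18 h at 37 C/5% CO2, dye-loaded 1 h at 37 C; compounds in DMSO added by pin tool (agonist mode). Intracellular calcium flux read as kinetic fluorescence on FDSS over 2 min at 1 s intervals.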

[14] = biological target: Muscarinic acetylcholine receptor M1 (Homo sapiens) (UniProt P11229); assay: Cholinergic receptor muscarinic 1 (CHRM1) small molecule antagonists, cell-based qHTS assay (AID 1963588); conditions: CHRM1-CHO antagonist mode, calcium flux fluorescence; at 61.5 µM (top of the series) unless noted; also: nearly all actives have a fitted effect of over 40% in size
How it was run: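 Compounds were tested at 15 concentrations in three independent runs. Dye-loaded CHRM1-CHO cells were exposed 5 min at room temperature before stimulation by acetylcholine added at 50nM. Intracellular calcium was read kinetically on FDSS for 3 min.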

[15] = biological target: Muscarinic acetylcholine receptor M1 (Homo sapiens) (UniProt P11229); assay: Cholinergic receptor muscarinic 1 (CHRM1) small molecule agonists, cell-based qHTS assay (AID 1963589); conditions: CHRM1-CHO cells, agonist mode, calcium flux fluorescence; at 76.8 µM (top of the series) unless noted; also: nearly all actives have a fitted effect of over 35% in size
How it was run: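 Fluorescent calcium dye reports M1 activation in stably transfected CHO cells. Compounds, 15 concentrations, added after 1 h dye loading at 37 C; kinetic reading at 1 sec intervals.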

[16] = cAMP Responsive Elements (CRE) small molecule agonists, cell-based qHTS assay (AID 1963590); conditions: CRE-bla HEK293T, beta-lactamase FRET ratio, 3 h; at 92.4 µM (top of the series) unless noted
How it was run: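 Compound exposure lasted 3 h at 37 C/5% CO2 in CRE-bla HEK 293T cells grown in assay medium with 10% dialyzed FBS and 25 mM HEPES. Reporter signal came from LiveBLAzer B/G FRET substrate, 2 h, room temperature.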

[17] = cAMP Responsive Elements (CRE) small molecule antagonists, cell-based qHTS assay (AID 1963591; active = well fitted inhibition curve with a large enough effect in the signal ratio in the repeat runs, not every such curve was filed as active; the % refers to the signal ratio); conditions: CRE-bla HEK293T, beta-lactamase FRET ratio; at 92.4 µM (top of the series) unless noted
How it was run: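 Stimulation used NKH477 at a final 0.25 uM for 3 h in compound-treated CRE-bla HEK293T cells, seeded 18 h beforehand. Reporter activity was measured with LiveBLAzer B/G FRET substrate after 2 h at room temperature.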

[18] = biological target: Beta-2 adrenergic receptor (Homo sapiens) (UniProt P07550); assay: Adrenergic beta2 receptor (ADRB2) small molecule antagonists, cell-based qHTS assay (AID 1963592); conditions: CHO-ADRB2 cells, isoproterenol-stimulated cAMP HTRF ratio, 0.5 h; at 92.4 µM (top of the series) unless noted; also: nearly all actives have a fitted effect of over 50% in size
How it was run: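 Assay format: CHO-ADRB2 cells, 18-20hr seeding at 37C/5% CO2, then compound plus 1nM isoproterenol agonist mix for 0.5hr RT. Homogeneous time-resolved fluorescence cAMP detection after 1hr, expressed as 665/615 nm ratio.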

[19] = biological target: Beta-2 adrenergic receptor (Homo sapiens) (UniProt P07550); assay: Adrenergic beta2 receptor (ADRB2) small molecule agonists, cell-based qHTS assay (AID 1963593); conditions: CHO-ADRB2 cells, cAMP HTRF, 30 min; at 92.4 µM (top of the series) unless noted;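 also: CHO cells stably overexpressing human ADRB2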
How it was run: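 CHO cells stably over-expressing ADRB2 were plated overnight at 37C, then dosed with compounds plus a stimulation mix containing 100uM IBMX and 25uM Ro-20-1724 for 0.5hr at room temperature. cAMP was measured by HTRF competition, 1hr.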

[20] = biological target: D(2) dopamine receptor (Homo sapiens) (UniProt P14416); assay: Dopamine D2 receptor (DRD2) small molecule agonists, cell-based qHTS assay (AID 1963594); conditions: HEK293-DRD2 cAMP HTRF, agonist mode, 30 min; at 92.4 µM (top of the series) unless noted; also: nearly all actives have a fitted effect of over 35% in size
How it was run: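 HEK293 cells stably expressing DRD2 were cultured 24 h at 37 C, then given Ro20-1724 (0.1 mM final) and compounds for 10 min at room temperature. NKH477 (200nM) was then added for 30 min. cAMP was read by HTRF.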

[21] = biological target: D(2) dopamine receptor (Homo sapiens) (UniProt P14416); assay: Dopamine D2 receptor (DRD2) small molecule antagonists, cell-based qHTS assay (AID 1963595; active = well fitted inhibition curve with a large enough effect in the signal ratio in the repeat runs, with a control signal flat; the % refers to the signal ratio); conditions: HEK293-DRD2 cAMP HTRF antagonist mode; at 92.4 µM (top of the series) unless noted
How it was run: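 HTRF cAMP read-out at 665 and 620 nm emission (340 nm excitation). Antagonist mode: compounds were tested against 12 nM quinpirole in DRD2-HEK293 cells, with 200 nM NKH477 raising cAMP and 0.1 mM Ro20-1724 blocking its breakdown.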
% is scaled to controls: 0 for no effect and ±100 for the full control effect.

CCOC(=O)N1CCC(=O)CC1
inactive: activity change, negative = cytotoxicity [1] -13.1% [at 42.5 µM] | activity, positive = activation [2] 3.5% [at 42.5 µM] | activity change [3] -0.535% [at 26.4 µM] | activation [4] -0.853% [at 35.3 µM] | activation [5] 0.925% [at 26.5 µM] | activation [6] 1.18% [at 30.3 µM] | activation [7] 0.727% [at 30.3 µM] | activity change, negative = cytotoxicity [8] -8.76% [at 30.3 µM] | activity change, negative = cytotoxicity [9] 0.3% [at 30.3 µM] | activity change, negative = cytotoxicity [10] 11.5% [at 30.3 µM] | activation [11] 0.484% [at 30.3 µM] | activity, negative = inhibition [12] 20.9% [at 28.5 µM] | activation [13] 0.683% [at 35.6 µM] | activity, negative = inhibition [14] 15.8% [at 28.3 µM] | activation [15] -0.117% [at 35.3 µM] | activation [16] -1.81% [at 42.5 µM] | activity change, negative = inhibition [17] -0.755% [at 42.4 µM] | activity change, negative = inhibition [18] 4.3% [at 42.5 µM] | activation [19] 26.1% [at 42.5 µM] | activation [20] -12.7% [at 42.5 µM] | activity change, negative = inhibition [21] 0.287% [at 42.5 µM]
